Source: ChEMBL document CHEMBL1136236, “Design and parallel synthesis of piperidine libraries targeting the nociceptin (N/OFQ) receptor” (Bioorg Med Chem Lett, 2003)

Amino acid sequences for entries named in this document (tags omitted).
UniProt P35372, whole entry, looked up: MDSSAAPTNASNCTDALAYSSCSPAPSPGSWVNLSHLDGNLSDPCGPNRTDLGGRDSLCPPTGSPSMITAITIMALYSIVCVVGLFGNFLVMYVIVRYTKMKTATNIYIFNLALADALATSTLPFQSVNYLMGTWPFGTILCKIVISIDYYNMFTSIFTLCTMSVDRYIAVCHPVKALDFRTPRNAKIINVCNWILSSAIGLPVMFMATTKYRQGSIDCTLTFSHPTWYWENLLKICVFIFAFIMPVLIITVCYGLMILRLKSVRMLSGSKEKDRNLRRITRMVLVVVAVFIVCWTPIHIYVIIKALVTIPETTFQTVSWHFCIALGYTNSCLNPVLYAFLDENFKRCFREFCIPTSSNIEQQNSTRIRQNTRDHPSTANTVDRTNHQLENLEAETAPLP

Target: Mu-type opioid receptor (Homo sapiens, UniProt P35372)
Experiment: Selectivity ratio of Opioid receptor mu 1 binding to Orphanin FQ receptor

CC(C)C1CCC(N2CCC(O)(c3cccc(C(F)(F)F)c3)CC2)CC1 (stereo unspecified)
Selectivity ratio: 3
